Earlier results as cited in patent publication US20150342921A1, “METFORMIN-ORLISTAT COMPOSITIONS” (LANDSTEINER SCIENTIFIC S.A. DE C.V., priority 2012, published 2015).

Details: in vivo; cited from earlier work

SMILES: CN(C)C(=N)N=C(N)N [Metformin]
- Blood protein link: insignificant
- Metabolism by the liver: not metabolized by the liver
